By UniProt entry, the sequences of proteins in these tests, tags left out. Where a name states a change or a piece, a line headed by the entry shows the natural chain unless it says otherwise.
UniProt Q9NXA8: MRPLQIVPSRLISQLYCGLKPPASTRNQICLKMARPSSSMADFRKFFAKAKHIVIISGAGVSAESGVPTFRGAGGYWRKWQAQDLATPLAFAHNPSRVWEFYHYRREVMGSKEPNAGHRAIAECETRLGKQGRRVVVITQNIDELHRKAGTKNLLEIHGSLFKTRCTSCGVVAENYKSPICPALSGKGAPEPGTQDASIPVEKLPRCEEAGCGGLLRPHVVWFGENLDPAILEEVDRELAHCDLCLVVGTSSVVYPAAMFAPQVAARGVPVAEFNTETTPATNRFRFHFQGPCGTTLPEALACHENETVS

In ChEMBL document CHEMBL4680222, “Sensitive fluorogenic substrates for sirtuin deacylase inhibitor discovery” (Eur J Med Chem, 2020):

Biological target: NAD-dependent protein deacylase sirtuin-5, mitochondrial (Homo sapiens) (UniProt Q9NXA8)
Details: dose 600.0 µM

For `CC(C)c1ccccc1Cc1cc(C(=O)Nc2ccc(S(=O)(=O)c3ccccc3C(C)(C)C)cc2)c(O)c(O)c1O`, the Ka was 21.6 10^4/M.
